Experimental findings from PubChem BioAssay AID743287 (Broad Institute, 2014) are described below.

Only a part is listed here, and it is no random draw. Active and inactive are the calls of the source.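 The calls were made as follows: active = lowest replicate activation of at least 40%, so every replicate reaches that level; inactive = the rest.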

The assay is described as follows: GLuc luminescence reporter in INS-1E cells, primary screen for activators of glucose-dependent secretion of insulin (AID 743287).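 Also: 0% = median of neutral control wells and 100% = median of IBMX positive control wells.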 The settings on record: INS-1E GLuc reporter insulin secretion, 2-3 h, at 16.6 µM, active compounds read high.
On to `Cc1cc(SC(NC=O)C(Cl)(Cl)Cl)ncn1` (stereo not given), for which the activation was inactive: -5.37%.

With `O=[N+]([O-])c1ccc(Nc2ccc(Oc3ccc([N+](=O)[O-])cc3[N+](=O)[O-])cc2)c([N+](=O)[O-])c1`, the activation was inactive: -3.87%.

With `CCOC(=O)Nc1cccc([As](=O)(O)O)c1`, the activation was inactive: -25.2%.

Take `O=P1(N(CCCl)CCCl)OCCCS1` (stereo not given): the activation was inactive: 7.54%.

Regarding `O=C(O)CNc1ccc([As](=O)(O)O)cc1`, the activation is inactive: 8.73%.

With `O=[N+]([O-])c1cccc(NC2=NCC(CBr)S2)c1` (stereo not given), the activation is inactive: -0.594%.

Consider `COC(=O)C1(C)COP(=O)(Nc2ccccc2)OC1` (stereo not given), for which the activation was inactive: -1.82%.

`O=[N+]([O-])c1ncn(CCn2ncnc2[N+](=O)[O-])n1`: the activation was inactive: 17.1%.

In the case of `CC(C)(C)C(=O)NC(Sc1ccncn1)C(Cl)(Cl)Cl` (stereo not given), the activation was inactive: 6.44%.

`Cc1ccc(NP(=O)(Oc2ccccc2)Oc2ccccc2)nc1`: the activation was inactive: 12.1%.

As for `O=[N+]([O-])c1cc([N+](=O)[O-])c(CCNc2ccccc2)c([N+](=O)[O-])c1`, the activation was inactive: 5.26%.

Regarding `COc1ccc(C2=NCC(CBr)S2)cc1` (stereo not given), the activation is inactive: -1.14%.

On to `c1cc(-c2nn[nH]n2)ccc1-c1nn[nH]n1`, for which the activation is inactive: 7.95%.

With `CC1CCN(C(=O)Oc2c(Cl)cc(Cl)c3cccnc23)CC1`, the activation is inactive: -20.9%.

As to `CC(C)=N/N=C(\N)N[N+](=O)[O-]`, the activation is inactive: 5.56%.

Take `CC(C)c1nc(Nc2ccccc2)n(P(=O)(N(C)C)N(C)C)n1`: the activation was inactive: 3.99%.

With `CN(C)C(=O)OCCc1n(C)cc[n+]1C`, the activation was inactive: 17%.

Take `CCN(/C(=N/P(=O)(N1CCOCC1)N1CCOCC1)N1CCOCC1)c1ccc(OC)cc1`: the activation is inactive: 6.65%.

On to `Nc1ccc([As](=O)(O)c2ccc(N)cc2)cc1`, for which the activation is inactive: 15.6%.

Consider `C[N+]1=C2C=CC=CC=C2SC12C([N+](=O)[O-])=CC([N+](=O)[O-])=C[C-]2[N+](=O)[O-]` (stereo not given), for which the activation is inactive: -8.41%.

`Clc1ccc(Cl)c(NC2=NCC(CBr)S2)c1` (stereo not given): the activation was inactive: 3.17%.

Consider `COc1ccccc1OP(=O)(Nc1ccc(C)cn1)Oc1ccccc1OC`, for which the activation is inactive: -0.408%.

In the case of `Cc1ccc(OP(=O)(Nc2nccs2)Oc2ccc(C)cc2)cc1`, the activation is inactive: -5.84%.

For `CN(C(=O)Cc1ccc(Cl)c(Cl)c1)[C@H]1CCCC[C@H]1N1CCCC1`, the activation is inactive: -3.38%.

As for `NC(=O)c1cc([N+](=O)[O-])cc([N+](=O)[O-])c1N`, the activation is inactive: 11.5%.

Consider `Oc1ccccc1CNc1ccccn1`, for which the activation was inactive: -2.86%.

For the compound `O=C(NC(Sc1ccncn1)C(Cl)(Cl)Cl)c1ccccc1` (stereo not given), the activation was inactive: -11.9%.

Take `CC(C)CC(=O)NC(Sc1ccc(Cl)cc1)C(Cl)(Cl)Cl` (stereo not given): the activation was inactive: -4.13%.

As for `Nc1cc(N)c2nonc2c1[N+](=O)[O-]`, the activation was inactive: 8.96%.

Take `CCn1c(=O)n(C2CCN(CC3CCCCCCC3)C[C@H]2CO)c2ccccc21` (stereo not given in full): the activation is inactive: -10.1%.

With `Cc1cc(SC(NC(=O)c2ccc(F)cc2)C(Cl)(Cl)Cl)ncn1` (stereo not given), the activation is inactive: -9.85%.

Consider `Cc1ccc(NP(=O)(Oc2ccccc2F)Oc2ccccc2F)nc1`, for which the activation is inactive: 20.7%.

For the compound `CN(C)P(=O)(N(C)C)n1c(Nc2ccccc2)nnc1-c1ccccc1`, the activation is inactive: 14.9%.

Regarding `O=P(Nc1nc2ccc(Cl)cc2s1)(c1ccccc1)c1ccccc1`, the activation was inactive: 2.69%.

As for `O=C(O)c1ccccc1[As](=O)(O)O`, the activation is inactive: 12%.

Take `CC(=O)Nc1ccc([As](=O)(O)O)cc1`: the activation is inactive: -1.69%.

With `Nc1cccc2ccc([As](=O)(O)O)cc12`, the activation was inactive: 10.7%.

For `CN(C(=O)Cc1ccccc1)C1CC[C@@]2(CCCO2)C[C@@H]1N1CCCC1` (stereo not given in full), the activation was inactive: -0.171%.

In the case of `CCN(N=Nc1nonc1N)c1nonc1N`, the activation is inactive: 15%.

As to `c1ccc(-c2nn[nH]n2)c(-c2nn[nH]n2)c1`, the activation was inactive: 9.28%.

For the compound `CCNC(=S)/N=C(\N)N[N+](=O)[O-]`, the activation is inactive: -3.52%.

`O=C(NC1CCS(=O)(=O)C1)NP(=S)(Oc1ccccc1)Oc1ccccc1` (stereo not given): the activation was inactive: -13.2%.

`Cc1ccccc1OP(=O)(Nc1ccccn1)Oc1ccccc1C`: the activation was inactive: -10.1%.

On to `CC(NC(=O)COC(=O)C(O)(c1ccccc1)c1ccccc1)c1ccccc1` (stereo not given), for which the activation is inactive: -19.5%.

For `CN(C)C(=O)Oc1noc2ccccc12`, the activation was inactive: -2.64%.

Regarding `O=c1c2cc([N+](=O)[O-])ccc2[nH]c2c([N+](=O)[O-])cc([N+](=O)[O-])cc12`, the activation is inactive: -26%.

Take `O=C(OC1CN2CCC1CC2)c1ccccc1` (stereo not given): the activation is inactive: 4.95%.

Turning to `CC(=O)NC(SC(=S)N(CC(C)C)CC(C)C)C(Cl)(Cl)Cl` (stereo not given), the activation is inactive: -2.54%.

In the case of `Cc1ccc(OP(=O)(Nc2ccccn2)Oc2ccc(C)cc2)cc1`, the activation was inactive: 5.95%.

For `CC(C)(C)C(=O)NC(Sc1ccccc1)C(Cl)(Cl)Cl` (stereo not given), the activation is inactive: 29.8%.

Consider `CCc1cc(O)c([N+](=O)[O-])c(C)c1[N+](=O)[O-]`, for which the activation was inactive: -12.6%.

On to `CCOc1ccc(C2=NCC(CBr)S2)cc1` (stereo not given), for which the activation is inactive: -12.1%.

`CC(=O)Nc1ccc([As](=O)(O)O)c(O)c1`: the activation is inactive: 9.87%.

As for `Cc1ccccc1CN(C)C(=O)COC(=O)C(O)(c1ccccc1)c1ccccc1`, the activation was inactive: -7.67%.

In the case of `C[C@H]1OP(=O)(Oc2ccccc2)C[C@@H]2O[C@@H]21` (stereo not given in full), the activation was inactive: 8.22%.

Regarding `N#C/C(=C\c1ccc(N(CCBr)CCBr)cc1)C(N)=O`, the activation is inactive: -4.28%.

For the compound `CC(=O)c1ccc(N2CC2c2ccncc2)cc1` (stereo not given), the activation is active: 46.1%.

On to `COC(=O)C1(C)COP(=O)(NCc2ccccc2)OC1` (stereo not given), for which the activation was inactive: 5.86%.

Turning to `CC(C)C(=O)NC(Sc1ccccc1)C(Cl)(Cl)Cl` (stereo not given), the activation is inactive: 8.83%.

For the compound `O=P(Nc1nc2ccccc2s1)(c1ccccc1)c1ccccc1`, the activation is inactive: 17.5%.

For the compound `C[C@H]1OP(=O)(Oc2ccccc2)[C@H](O)[C@H](O)[C@H]1N=[N+]=[N-]` (stereo not given in full), the activation was inactive: -7.06%.

As for `O=P(Nc1ccccn1)(c1ccc(Br)cc1)c1ccc(Br)cc1`, the activation was inactive: -7.89%.

As to `CN(C)C1(CNC(=O)c2ccc(Cl)c(S(N)(=O)=O)c2)CCCCC1`, the activation was inactive: 2.36%.

`Nc1ccc(CCCCOc2ccccc2)cc1`: the activation is inactive: -7.84%.

With `C/C(N)=N\P(=O)(OCc1ccccc1)OCc1ccccc1`, the activation is inactive: 8.3%.

As for `Nc1ccc([As](=O)(O)c2ccc([N+](=O)[O-])cc2)cc1`, the activation was inactive: -5.45%.

For the compound `C(Cc1nn[nH]n1)Cc1nn[nH]n1`, the activation was inactive: -2.39%.

As for `O=[As](O)(c1ccccc1)c1ccc(O)cc1`, the activation was inactive: 7.46%.

`CC(=O)NC(SC(=S)N(C)C)C(Cl)(Cl)Cl` (stereo not given): the activation is inactive: -20.8%.

As to `O=[N+]([O-])c1ncn(CCn2cnc([N+](=O)[O-])n2)n1`, the activation was inactive: -11.3%.
